Molecular target: SARM1 (50-724) (Homo sapiens, UniProt Q6SZW1)
Assay: SARM1 (50-724) enzymatic assay (NMN-activated NAD+ hydrolysis, LC-MS/MS readout)
Details: read-out: IC50 (SARM1 inhibitory activity), purified SARM1 (50-724) 2 nM, 200 μM NMN activator, 100 μM NAD+ substrate, 1 h at room temperature

The chains behind the UniProt entries cited, without tags or fusion partners. Residues count along the entry.
UniProt Q6SZW1, 50-724 limits assumed: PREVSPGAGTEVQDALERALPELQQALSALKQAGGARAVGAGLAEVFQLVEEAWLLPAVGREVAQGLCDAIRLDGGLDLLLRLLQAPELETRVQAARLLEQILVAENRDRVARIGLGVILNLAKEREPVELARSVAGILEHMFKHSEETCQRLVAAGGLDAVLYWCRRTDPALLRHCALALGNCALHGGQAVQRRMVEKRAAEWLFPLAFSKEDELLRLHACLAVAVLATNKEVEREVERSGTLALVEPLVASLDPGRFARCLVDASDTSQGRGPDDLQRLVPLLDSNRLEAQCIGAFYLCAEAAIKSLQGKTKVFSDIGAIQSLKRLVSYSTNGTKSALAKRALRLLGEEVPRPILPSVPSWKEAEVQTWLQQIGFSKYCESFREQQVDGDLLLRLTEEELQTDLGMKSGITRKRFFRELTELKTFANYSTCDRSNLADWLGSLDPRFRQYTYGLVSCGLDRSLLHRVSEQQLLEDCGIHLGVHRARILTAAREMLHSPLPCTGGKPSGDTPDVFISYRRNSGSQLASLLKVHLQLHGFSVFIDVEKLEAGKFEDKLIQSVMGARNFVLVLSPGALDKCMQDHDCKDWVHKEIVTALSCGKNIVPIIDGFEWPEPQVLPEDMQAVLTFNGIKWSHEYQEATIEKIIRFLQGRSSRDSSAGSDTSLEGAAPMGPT

Row | IC50 [µM] | SMILES
1 | 0.501 to 1 | CCCc1c(C(=O)N(C)C2CCCC2)[nH]c2ccc(C)cc12
2 | 0.501 to 1 | Cc1ccc2[nH]c(C(=O)N(C)C3CCCC3)c(CC#N)c2c1

Source: US20260265195A1, “SARM1 MODULATORS, PREPARATIONS, AND USES THEREOF” (SIRONAX LTD, priority 2022, published 2026)
